# Data from patent publication US20250025443A1, “COMPOUNDS AND METHODS FOR TREATING CORONA VIRUSES” (CLEAR CREEK BIO, INC., priority 2021, published 2025).
# Molecular target: SARS-CoV-2 Papain-Like Protease (PLpro) (Severe acute respiratory syndrome coronavirus 2 (2019-nCoV) (SARS-CoV-2), UniProt P0DTD1)
# Assay: biochemical
# Conditions: PLpro IC50, SARS-CoV-2 PLpro enzymatic fluorescence assay
row,SMILES,IC50 [µM]
1,"Cc1ccc(OC2CNC2)cc1C(=O)N[C@H](C)c1cccc2ccccc12 [Compound 141, (R)-5-(Azetidin-3-yloxy)-2-methyl-N-(1-(naphthalen-1-yl)ethyl)benzamide]",0.1 to 1
2,"Cc1ccc(OCCN)cc1C(=O)N[C@H](C)c1cccc2ccccc12 [Compound 159, (R)-5-(2-Aminoethoxy)-2-methyl-N-(1-(naphthalen-1-yl)ethyl)benzamide]",0.1 to 1
